Measurements published in article PMC9303312, “Balancing Histone Deacetylase (HDAC) Inhibition and Drug‐likeness: Biological and Physicochemical Evaluation of Class I Selective HDAC Inhibitors” (Chemmedchem, 2022).

Protein sequences, listed by entry. Tags and fused reporters are not part of them.
UniProt Q13547, whole entry: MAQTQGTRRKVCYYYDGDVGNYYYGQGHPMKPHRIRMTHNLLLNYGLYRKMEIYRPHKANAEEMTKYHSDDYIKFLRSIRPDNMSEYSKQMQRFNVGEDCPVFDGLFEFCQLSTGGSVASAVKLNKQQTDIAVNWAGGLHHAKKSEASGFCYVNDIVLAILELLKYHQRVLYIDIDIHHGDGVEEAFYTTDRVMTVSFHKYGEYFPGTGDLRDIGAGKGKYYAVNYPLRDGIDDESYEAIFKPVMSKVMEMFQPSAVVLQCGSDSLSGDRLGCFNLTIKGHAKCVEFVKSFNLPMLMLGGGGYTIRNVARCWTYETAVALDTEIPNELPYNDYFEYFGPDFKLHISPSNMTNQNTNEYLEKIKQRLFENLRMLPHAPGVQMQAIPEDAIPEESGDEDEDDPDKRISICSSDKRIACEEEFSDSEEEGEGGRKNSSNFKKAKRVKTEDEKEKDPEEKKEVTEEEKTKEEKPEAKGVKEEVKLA

Molecular target: HDAC1 (Homo sapiens, UniProt Q13547)
Assay: IC50-shift experiments (varied preincubation time)
Type: biochemical
Conditions: triplicates

CN(C)c1ccc(C(=O)N(CC(=O)NC(C)(C)C)Cc2ccc(C(=O)Nc3cc(-c4ccncc4)ccc3N)cc2)cc1 [10 c]
IC50 (HDAC1 IC50, preincubation 5 min, preincubation time 5 min at 20°C): 53 nM | IC50 (HDAC1 IC50, preincubation 15 min, preincubation time 15 min at 20°C): 48.9 nM | IC50 (HDAC1 IC50, preincubation 30 min, preincubation time 30 min at 20°C): 34.7 nM | IC50 (HDAC1 IC50, preincubation 60 min, preincubation time 60 min at 20°C): 27.9 nM
